This assay deals with T1, P. falciparum dihydroorotate dehydrogenase (pfDHODH) (Plasmodium falciparum, UniProt Q08210).
T1 sequence (Q08210 24-569): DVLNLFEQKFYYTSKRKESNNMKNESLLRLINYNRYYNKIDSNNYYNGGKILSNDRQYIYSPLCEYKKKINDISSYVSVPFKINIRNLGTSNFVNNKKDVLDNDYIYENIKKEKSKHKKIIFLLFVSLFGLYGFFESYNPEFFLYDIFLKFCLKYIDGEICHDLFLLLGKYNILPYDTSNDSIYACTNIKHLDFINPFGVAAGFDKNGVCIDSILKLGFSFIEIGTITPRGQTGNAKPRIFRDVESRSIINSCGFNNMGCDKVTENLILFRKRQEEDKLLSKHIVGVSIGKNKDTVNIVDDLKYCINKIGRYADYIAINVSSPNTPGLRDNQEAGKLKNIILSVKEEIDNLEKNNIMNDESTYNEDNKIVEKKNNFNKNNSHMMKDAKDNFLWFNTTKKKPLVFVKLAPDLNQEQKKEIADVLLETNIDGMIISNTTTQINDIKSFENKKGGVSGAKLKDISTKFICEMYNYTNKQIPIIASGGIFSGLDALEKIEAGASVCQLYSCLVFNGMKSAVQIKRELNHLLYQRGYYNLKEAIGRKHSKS
The experiment in a line: biochemical. How it is done: Measurement of enzyme inhibition. For studying inhibition of Plasmodium or human DHODH enzyme, two assays that are in routine use are described, for example, in Baldwin, et al. (2002) J Biol Chem., 277, 41827-41834, and Baldwin, et al. (2005) J. Biol. Chem., 280. 21847-21853. Briefly, these assays are as follows: 1) A […] assay thay that monitors 2,6-dichloroindophenol (DCIP) reduction at 600 nm (e=18.8 mM^−1 cm^−1) is performed as either a continuous assay where absorbance is recorded over time. The assay solution containing 100 mM HEPES, pH 8.0, 150 mM NaCl, 10% glycerol, 0.05% Triton X-[…] CoQ0 (coenzyme QD), […] L-dihydroorotate, and […] DCIP. Reactions are initiated by addition of enzyme to a final concentration of 5-50 nM and the temperature is maintained at 25° C with a circulating water bath. 2) A direct assay that follows the production of orotic acid by measuring the absorbance change at 287 nm (ε=4.3 mM^−1 cm^−1); DCIP is not included, but all other components of the assay are as described in method one. Inhibitor stocks are prepared in DMSO, and the inhibitors, such as GR-34, are added to these assays over a concentration range that encompasses their IC50 value and, the IC50's are determined from a plot of reaction rate in the presence of inhibitor/reaction rate in the absence of inhibitor (vi/vo) versus inhibitor concentration (Eq. 1). [formula]

A word on the IC50: it is the concentration that inhibits the measured activity by half. Low readings indicate greater potency in that assay, high ones weaker potency in that assay. As for `Cc1cc(Nc2ccc3ccccc3c2)n2ncnc2n1` [5-methyl-N-(naphthalen-2-yl)-[1,2,4]triazolo[1,5-a]pyrimidin-7-amine], the IC50 was found to be 40 nM.

The record behind these values is patent publication US20080027079A1, “DIHYDROOROTATE DEHYDROGENASE INHIBITORS WITH SELECTIVE ANTI-MALARIAL ACTIVITY” (Board of Regents, University of Texas System, priority 2006, published 2008).
